Patent US10752631B2, “Heterocyclic compounds as FGFR inhibitors” (GUANGZHOU INNOCARE PHARMA TECH CO., LTD., priority 2016, dated 2020)

Tested on: RT4 bladder cancer cells
Assay: cells
Details: Homo sapiens, RT-4, 72 h, read-out: RT4 IC50 (nM)

Structure (SMILES) | IC50
C=CC(=O)N1CC(c2nc(C#Cc3cc(OC)cc(OC)c3)c3c(N)nccn23)C1 [Compound 2, 1-((3,5-Dimethoxyphenyl)ethynyl)-3-(1-acrylazacyclobutan-3-yl)imidazo[1,5-a]pyrazin-8-amine] | 100 to 500 nM
C=CC(=O)N1CC[C@H](c2nc(C#Cc3cc(OC)cc(OC)c3)c3c(N)nccn23)C1 [Compound 1, (S)-1-((3,5-Dimethoxyphenyl)ethynyl)-3-(1-acrylpyrrolidin-3-yl)imidazo[1,5-a]pyrazin-8-amine] | < 100 nM
C=CC(=O)N1CCC(c2nc(C#Cc3cc(OC)cc(OC)c3)c3c(N)nccn23)C1 (stereo not drawn) [Compound 4, 1-((3,5-Dimethoxyphenyl)ethynyl)-3-(1-acrylpyrrolidin-3-yl)imidazo[1,5-a]pyrazin-8-amine] | 100 to 500 nM
